{"source": "patent EP0041644B1", "about": "“Salts of 2-hydroxymalonato diammine platinum (II) compounds, process for preparing said compounds and pharmaceutical compositions containing said compounds” (priority 1980, dated 1981)", "type_in_all_cases": "in vivo, mice", "key": {"B16 Melanoma [1]": {"test_system": "B16 Melanoma", "assay": "B16 Melanoma - Test 1 (ip tumor brei)", "conditions": "for mice cured: ip B16, at the dose of maximum T/C"}, "B16 Melanoma [2]": {"test_system": "B16 Melanoma", "assay": "B16 Melanoma - Test 2 (ip tumor brei)", "conditions": "QD +9"}, "L-1210 Leukemia": {"test_system": "L-1210 Leukemia", "assay": "L-1210 Leukemia (Table IX)", "conditions": "qd 1→9"}, "Lewis Lung Carcinoma": {"test_system": "Lewis Lung Carcinoma", "assay": "Lewis Lung Carcinoma - Test 1 (ip, delayed therapy)"}, "L1210 Leukemia": {"test_system": "L1210 Leukemia", "assay": "L1210 Leukemia - Test 2", "conditions": "4 mg/kg/inj ip, qd 1→9", "from_the_text": "Intravenous administration of sodium salt was effective only when given on a multi-dose regimen (T/C of 143%) and was not as effective as when given ip or when compared to iv cis- diamminedichloroplatinum (II) (maximum T/C of 179%) on the same multi-dose schedule."}}}
{"compound": "[NH2][Pt]1([NH2])[O]C(=O)C(O)C(=O)[O]1", "note": "[2-Hydroxymalonato diammine platinum (II), 2-hydroxymalonato diammine platinum (II)]", "values": [{"measurement": "Survivors Day 5(60)", "setting": "B16 Melanoma [1]; Day 60 (figure in parentheses), 4 mg/kg/day ip, QD 1→9, vehicle CMC + H2O", "result": 2}, {"measurement": "Survivors Day 5(60)", "setting": "B16 Melanoma [1]; Day 60 (figure in parentheses), 16 mg/kg/day ip, QD 1→9, vehicle CMC + H2O", "result": 5}, {"measurement": "Survivors Day 5(60)", "setting": "B16 Melanoma [1]; Day 60 (figure in parentheses), 24 mg/kg/day ip, QD 1→9, vehicle CMC + H2O", "result": 1}, {"measurement": "mice cured", "setting": "B16 Melanoma [1]", "result": "4/10"}, {"measurement": "Survivors Day 10 (60)", "setting": "B16 Melanoma [2]; Day 10, 16 mg/kg/day ip", "result": "9/10"}, {"measurement": "Survivors Day 10 (60)", "setting": "B16 Melanoma [2]; Day 60 (figure in parentheses), 2 mg/kg/day ip", "result": 1}, {"measurement": "Survivors Day 10 (60)", "setting": "B16 Melanoma [2]; Day 60 (figure in parentheses), 8 mg/kg/day ip", "result": 1}, {"measurement": "Survivors Day 10 (60)", "setting": "B16 Melanoma [2]; Day 60 (figure in parentheses), 16 mg/kg/day ip", "result": 7}]}
{"compound": "[NH2][Pt]1([NH2])[O]C(=O)C([O-])C(=O)[O]1.[NH4+]", "note": "[Example 1, 2-Hydroxymalonato diammine platinum (II), ammonium salt]", "values": [{"measurement": "Survivors Day 5(60)", "setting": "B16 Melanoma [1]; Day 60 (figure in parentheses), 8 mg/kg/day ip, QD 1→9, vehicle H2O", "result": 1}, {"measurement": "Survivors Day 5(60)", "setting": "B16 Melanoma [1]; Day 60 (figure in parentheses), 16 mg/kg/day ip, QD 1→9, vehicle H2O", "result": 1}, {"measurement": "mice cured", "setting": "B16 Melanoma [1]", "result": "1 of 10"}, {"measurement": "Survivors Day 5(60)", "setting": "B16 Melanoma [1]; mouse, in vivo, ip, 8 mg/kg/day", "result": "10/10"}, {"measurement": "Survivors Day 5(60)", "setting": "B16 Melanoma [1]; mouse, in vivo, ip, 16 mg/kg/day", "result": "8/10"}, {"measurement": "Survivors Day 5(60)", "setting": "B16 Melanoma [1]; mouse, in vivo, ip, 24 mg/kg/day", "result": "10/10"}, {"measurement": "Survivors Day 5(60)", "setting": "B16 Melanoma [1]; mouse, in vivo, ip, 32 mg/kg/day", "result": "5/10"}]}
{"compound": "O=C1[O][Pt]2([NH]CC3(CCCCC3)C[NH]2)[O]C(=O)C1[O-].[Na+]", "note": "[Example 9, 2-Hydroxymalonato (1,1-diaminomethylcyclohexane)-platinum (II), sodium salt]", "values": [{"measurement": "Survivors Day 5(45)", "setting": "L-1210 Leukemia; 2 mg/kg/inj ip", "result": "6/6"}, {"measurement": "Survivors Day 5(45)", "setting": "L-1210 Leukemia; 4 mg/kg/inj ip", "result": "6/6"}]}
{"compound": "[NH2][Pt]1([NH2])[O]C(=O)C([O-])C(=O)[O]1.[Na+]", "note": "[Example 3, 2-Hydroxymalonato diammine platinum (II), sodium salt]", "values": [{"measurement": "Survivors Day 9(48)", "setting": "Lewis Lung Carcinoma; Day 9, 4 mg/kg/inj ip, qd 5→13", "result": "5/6"}, {"measurement": "Survivors Day 9(48)", "setting": "Lewis Lung Carcinoma; Day 48 (figure in parentheses), 40 mg/kg/inj ip, d. 5,9&13", "result": 1}, {"measurement": "Survivors Day 9(48)", "setting": "Lewis Lung Carcinoma; Day 48 (figure in parentheses), 60 mg/kg/inj ip, d. 5,9&13", "result": 1}, {"measurement": "Survivors Day 9(48)", "setting": "Lewis Lung Carcinoma; Day 48 (figure in parentheses), 80 mg/kg/inj ip, d. 5,9&13", "result": 2}, {"measurement": "Survivors Day 9(48)", "setting": "Lewis Lung Carcinoma; mouse, in vivo, ip, 8 mg/kg", "result": "6/6"}, {"measurement": "Survivors Day 9(48)", "setting": "Lewis Lung Carcinoma; mouse, in vivo, ip, 12 mg/kg", "result": "6/6"}, {"measurement": "Survivors Day 9(48)", "setting": "Lewis Lung Carcinoma; mouse, in vivo, ip, 16 mg/kg", "result": "6/6"}, {"measurement": "Survivors Day 9(48)", "setting": "Lewis Lung Carcinoma; mouse, in vivo, ip, 20 mg/kg", "result": "6/6"}, {"measurement": "Survivors Day 9(48)", "setting": "Lewis Lung Carcinoma; mouse, in vivo, ip, 40 mg/kg", "result": "6/6"}, {"measurement": "Survivors Day 9(48)", "setting": "Lewis Lung Carcinoma; mouse, in vivo, ip, 60 mg/kg", "result": "6/6"}, {"measurement": "Survivors Day 9(48)", "setting": "Lewis Lung Carcinoma; mouse, in vivo, ip, 80 mg/kg", "result": "6/6"}, {"measurement": "Survivors Day 9(48)", "setting": "Lewis Lung Carcinoma; mouse, in vivo, iv, 20 mg/kg", "result": "6/6"}, {"measurement": "Survivors Day 9(48)", "setting": "Lewis Lung Carcinoma; mouse, in vivo, iv, 40 mg/kg", "result": "6/6"}, {"measurement": "Survivors Day 9(48)", "setting": "Lewis Lung Carcinoma; mouse, in vivo, iv, 60 mg/kg", "result": "6/6"}, {"measurement": "Survivors Day 9(48)", "setting": "Lewis Lung Carcinoma; mouse, in vivo, iv, 80 mg/kg", "result": "6/6"}, {"measurement": "Survivors Day 5(30)", "setting": "L1210 Leukemia", "result": "6/6"}]}
